# Laboratory results from patent publication US20260103465A1, “GLYCOGEN SYNTHASE KINASE 3 INHIBITORS AND USES THEREOF” (The Broad Institute, Inc., priority 2023, published 2026).
# By UniProt entry, the sequences of proteins in these tests, tags left out.
# UniProt P49840, whole entry: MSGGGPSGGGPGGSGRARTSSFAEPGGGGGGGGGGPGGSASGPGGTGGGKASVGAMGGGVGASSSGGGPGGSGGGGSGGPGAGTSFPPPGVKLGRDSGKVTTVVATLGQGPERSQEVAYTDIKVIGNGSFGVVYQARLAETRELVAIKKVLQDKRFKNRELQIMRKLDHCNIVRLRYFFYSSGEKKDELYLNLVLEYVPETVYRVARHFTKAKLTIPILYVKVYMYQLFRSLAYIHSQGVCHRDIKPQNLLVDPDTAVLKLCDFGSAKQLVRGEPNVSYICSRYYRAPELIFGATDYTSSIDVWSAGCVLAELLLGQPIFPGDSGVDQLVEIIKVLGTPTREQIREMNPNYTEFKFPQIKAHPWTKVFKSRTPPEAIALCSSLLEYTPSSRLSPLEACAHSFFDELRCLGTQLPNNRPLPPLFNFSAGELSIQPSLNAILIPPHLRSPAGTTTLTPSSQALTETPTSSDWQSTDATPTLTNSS
# UniProt P49841, whole entry: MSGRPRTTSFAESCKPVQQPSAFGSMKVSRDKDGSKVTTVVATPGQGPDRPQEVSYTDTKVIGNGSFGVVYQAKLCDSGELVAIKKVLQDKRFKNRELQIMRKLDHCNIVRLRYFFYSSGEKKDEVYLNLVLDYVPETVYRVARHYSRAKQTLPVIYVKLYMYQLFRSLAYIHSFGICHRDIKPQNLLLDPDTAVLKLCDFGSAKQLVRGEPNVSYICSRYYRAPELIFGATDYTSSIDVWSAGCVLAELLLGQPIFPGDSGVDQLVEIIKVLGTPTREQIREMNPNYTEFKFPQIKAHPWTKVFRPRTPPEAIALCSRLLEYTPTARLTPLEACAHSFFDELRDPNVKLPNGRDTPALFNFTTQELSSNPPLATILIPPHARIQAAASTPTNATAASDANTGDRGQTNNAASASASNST
# pIC50: −log10 of the molar value. Like-named read-outs stand apart in the source and are kept apart here.
# What was measured:
# [1] = target: GSK3a (GST-full length GSK3a) (Homo sapiens, UniProt P49840); test: GSK3a TR-FRET kinase inhibition assay
# Protocol: (§1) TR-FRET assay was performed in a white, 384 well, low volume, flat bottom plate (Grenier). After a 30 minute preincubation in assay buffer with the indicated concentration of compound, the kinase activity was initiated by the addition of the substrates. 1 nM GSK3a (GST-full length GSK3a [SignalChem G08-10G]) or 1 nM GSK3b (GST-full length GSK3b: [SignalChem G08-9G]) were then incubated at ambient temperature for 100 minutes in 10 μl of 50 mM Tris, pH 7.5, 20 mM MgCl2, 0.05 mM DTT, 100 μg/ml BSA and 1% DMSO, with 200 nM biotinylated peptide substrate (biotinylated and S645 phosphorylated glycogen synthase 631-650) and ATP (e.g., at 2 μM, 4 μM, 10 μM, 100 μM, or 1 mM). The kinase activity was quenched with 2 μl of 250 mM EDTA. A 10 μl volume of 40 nM Strepavidin-d2, 2 nM […] antibody in TR-FRET Detection Buffer (Invitrogen) was then added. After 60 min at room temperature the plate was read on Envision plate reader using Ex: 340 nm, Em: 615 nm and […]. The normalized 665/615 Signal ratio versus log compound concentration was analyzed by XLFIT to yield IC50 values.
# [2] = target: GSK3b (GST-full length GSK3b) (Homo sapiens, UniProt P49841); test: GSK3b TR-FRET kinase inhibition assay
# Protocol: as §1
# [3] = Human liver microsomal stability; details: human liver microsomes
# Protocol: Stability of compound (5 μL of a 10 mM DMSO solution) in human liver microsomes was tested in duplicate by incubating compound at 1 μM for 60 minutes at 37° C. Compound level at 60 minutes was compared to level at 0 minutes, and percent remaining was calculated. Order by selecting Microsomal Stability in Prometheus, checking boxes for desired species. Assay Controls: microsomes with NADPH without compound-matrix interference. Microsomes plus compound without NADPH—non-enzymatic instability.
# [4] = system: MDR1-MDCK cell monolayers; test: MDR1/MDCK permeability assay; details: for MDCK Permeability (MDR1-MDCK); Mean; Papp(A-B) (10^−6 cm/s): A to B; for MDCK Permeability (MDR1-MDCK); Mean; Papp(B-A) (10^−6 cm/s): B to A
# Source text: The MDR1/MDCK assay is run at WuXi and Absorption Systems. This assay is used to determine the blood-brain barrier (BBB) penetration potential of a test compound using MDR1-MDCK cell monolayers. Catalog number EA203.
# • The percent recovery of the test compound from the Transwell® wells containing MDR1-MDCK cell monolayers • The apparent permeability (Papp) in both directions • The efflux ratio (Papp B to A)/(Papp A to B) • The blood-brain barrier penetration potential classification: • High when • Papp A to B≥3.0×10^−6 cm/s, and efflux<3.0 • Moderate when • Papp A to B≥3.0×10^−6 cm/s, and 10>efflux≥3.0 • Low when either • Papp A to B≥3.0×10^−6 cm/s, and […], or when • Papp A to B<[…].
# • Test compound at 5 μM in HBSSg with maximum DMSO concentration not greater than 1%.
# • Confluent monolayers of MDR1-MDCK cells, 7 to 11 days old.
# • Receiver well with 1% BSA in modified Hanks buffer (HBSSg) • Apical and basolateral side at pH 7.4 • Dose two monolayers in each direction (N=2) • Dose apical side for (A to B) assessment • Dose basolateral side for (B to A) assessment • Sample both apical and basolateral sides at 120 minutes • Determine the concentrations of test compound using a generic LC-MS/MS method with a minimum 4 point calibration curve.
# • The quality of the cell monolayer batch is verified using control compounds before monolayers are released for use • The quality of each monolayer used in the assay is verified by a TEER measurement and by calculating the Papp for a control compound.
# [5] = read-out: GSK3α TR-FRET 4 μM ATP GMean IC50, 4 μM ATP
# [6] = read-out: GSK3β TR-FRET 2 μM ATP GMean IC50, 2 μM ATP
# [7] = read-out: GSK3a TR-FRET 1 mM ATP Average IC50, 1 mM ATP, Table 3
# [8] = read-out: GSK3b TR-FRET 1 mM ATP Average IC50, 1 mM ATP, Table 3
# [9] = read-out: GSK3α TR-FRET 1 mM ATP Average IC50, 1 mM ATP, Table 5
# [10] = read-out: GSK3β TR-FRET 1 mM ATP Average IC50, 1 mM ATP, Table 5
SMILES,"pIC50 [1, 5]","pIC50 [2, 6]",Microsome Stability (Human) (DMPK_BIIB); Mean; in vitro t1/2 ([3]; Table 4) [min],MDCK Permeability (MDR1-MDCK); Mean; Papp(A-B) (10^−6 cm/s) ([4]; Table 4),MDCK Permeability (MDR1-MDCK); Mean; Papp(B-A) (10^−6 cm/s) ([4]; Table 4),"MDCK Permeability (MDR1-MDCK); Mean; P. Ratio(B-A/A-B) Efflux Ratio ([4]; Papp B-A/A-B, Table 4)",further results
"CCC1(c2ccccc2)C2=C(Nc3ncccc31)C(F)C(C)(C)CC2=O (single isomer, unassigned)",6.00 to 7.00,6.00 to 7.00,14,19 10^−6 cm/s,28 10^−6 cm/s,1.5,–
"CCC1(c2ccccc2)C2=C(Nc3ncccc31)C(F)C1(CCC1)CC2=O (single isomer, unassigned) [1009B]",6.00 to 7.00,6.00 to 7.00,11,32 10^−6 cm/s,47 10^−6 cm/s,1.5,–
"COc1cncc(F)c1-c1cccc(C2(C)C3=C(CC(C)(C)CC3=O)Nc3ncc(CC(C)(C)C)cc32)c1 (single isomer, unassigned)",–,–,–,–,–,–,"pIC50 [1, 7]: 4.70 to 5.30; pIC50 [2, 8]: 4.70 to 5.30"
"CC1(C)CC2=C(C(=O)N1)C(C)(c1cccc(S(C)(=O)=O)c1)c1cc(C(F)(F)F)cnc1N2 (single isomer, unassigned) [651B]",–,–,–,–,–,–,"pIC50 [1, 9]: 4.70 to 5.30; pIC50 [2, 10]: 4.70 to 5.30"
"CC1(C)CC(=O)C2=C(C1)Nc1ncc(CF)c(C#N)c1C2(C)c1ccccc1 (single isomer, unassigned) [614A]",–,–,–,–,–,–,"pIC50 [1, 9]: 6.00 to 7.00; pIC50 [2, 10]: 6.00 to 7.00"
Cc1cnc2c(c1)C(C)(c1ccccc1)C1=C(CC(C)(C)CC1=O)N2 (centres unmarked),–,–,–,–,–,–,"pIC50 ([1]; read-out: GSK3a 100 μM ATP Average IC50, 100 μM ATP): 6.00 to 7.00; pIC50 [1, 7]: 4.70 to 5.30; pIC50 ([2]; read-out: GSK3b 100 μM ATP Average IC50, 100 μM ATP): 6.00 to 7.00; pIC50 [2, 8]: 5.30 to 6.00; Microsome Stability (Human) (DMPK_BIIB); Mean; in vitro t1/2 ([3]; Table 3): 111 min; MDCK Permeability (MDR1-MDCK); Mean; Papp(A-B) (10^−6 cm/s) ([4]; Table 3): 30 10^−6 cm/s; MDCK Permeability (MDR1-MDCK); Mean; Papp(B-A) (10^−6 cm/s) ([4]; Table 3): 16 10^−6 cm/s; MIDCK Permeability (MDR1-MDCK); Mean; P. Ratio(B-A/A-B) Efflux Ratio ([4]; Papp B-A/A-B, Table 3): 0.56"

# Second part, led by results:
"pIC50 [1, 5]","pIC50 [2, 6]",Microsome Stability (Human) (DMPK_BIIB); Mean; in vitro t1/2 ([3]; Table 4) [min],MDCK Permeability (MDR1-MDCK); Mean; Papp(A-B) (10^−6 cm/s) ([4]; Table 4),MDCK Permeability (MDR1-MDCK); Mean; Papp(B-A) (10^−6 cm/s) ([4]; Table 4),"MDCK Permeability (MDR1-MDCK); Mean; P. Ratio(B-A/A-B) Efflux Ratio ([4]; Papp B-A/A-B, Table 4)",SMILES,further results
> 7.00,> 7.00,6.3,34 10^−6 cm/s,35 10^−6 cm/s,1,"CCC1(c2ccccc2)C2=C(Nc3ncccc31)C(F)C1(CCC1)CC2=O (single isomer, unassigned) [1009A]",–
< 5.30,< 5.30,1.6,23 10^−6 cm/s,28 10^−6 cm/s,1.3,"CCC1(c2ccccc2)C2=C(Nc3ncccc31)C(F)C1(CCC1)CC2=O (single isomer, unassigned) [1009D]",–
< 5.30,< 5.30,2.1,23 10^−6 cm/s,21 10^−6 cm/s,0.9,"CCC1(c2ccccc2)C2=C(Nc3ncccc31)C(F)C1(CCC1)CC2=O (single isomer, unassigned) [1009C]",–
